Here are results for 1 compound from patent US5521199A, “Piperidinyl compounds as neurokinin receptor antagonists” (Zeneca Limited, priority 1993, dated 1996).

The chains behind the UniProt entries cited, without tags or fusion partners.
UniProt P21452, whole entry: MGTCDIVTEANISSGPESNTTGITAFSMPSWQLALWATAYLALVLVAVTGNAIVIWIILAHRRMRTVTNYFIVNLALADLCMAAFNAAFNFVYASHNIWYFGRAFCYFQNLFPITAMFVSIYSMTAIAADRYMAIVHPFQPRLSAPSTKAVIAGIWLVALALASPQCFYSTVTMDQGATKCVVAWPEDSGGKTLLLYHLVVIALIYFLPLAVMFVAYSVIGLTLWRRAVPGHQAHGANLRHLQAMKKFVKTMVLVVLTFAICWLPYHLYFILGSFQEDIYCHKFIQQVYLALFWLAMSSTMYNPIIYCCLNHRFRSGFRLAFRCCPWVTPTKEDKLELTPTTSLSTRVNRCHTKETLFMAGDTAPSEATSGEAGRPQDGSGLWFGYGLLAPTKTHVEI

The target of this assay is human NK2 receptor (Homo sapiens, UniProt P21452). Kind of assay: Neurokinin A (NKA) Receptor-binding Assay (Test A). The settings on record: read-out: IC50 versus 3H-NKA binding to MELM, 60 min at 25° C., pH 7.4.

Regarding `CSCCC1NC(=O)C(CC(C)C)NC(=O)CNC(=O)C(Cc2ccccc2)NC(=O)C(Cc2c[nH]c3ccccc23)NC(=O)C(CCC(N)=O)NC1=O` (stereo not shown), the IC50 was found to be 30 nM.

What is called IC50 is the concentration at which inhibition is half-maximal.
